KDM4E inh = blocks human JMJD2E demethylase activity; B2RXH2; JMJD2E catalytic domain, FDH-coupled NADH fluorescence (FDH is formaldehyde dehydrogenase); Potency, µM (top dose mostly 57.1 µM), for the others: top-dose activity change, negative = inhibition, hits mostly inhibitors; 1.6% of 230,000 active; active = well fitted inhibition curve with a large enough effect, not every such curve was filed as active; inconclusive = small, poorly fitted or top-dose-only effect, or another doubt; inactive = no such curve, though single readings can be large or run the other way;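 also: potency is read from the fitted curve at half-maximal effect; 0% = wells with enzyme and -100% = buffer wells without enzyme; nearly all actives have a fitted effect of over 50% in size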
Lamin A splicing = LMNA splicing modulation. HeLa LMNA splicing GFP/RFP minigene ratio, 48 h. Potency, µM (doses to about 46.1 µM), inactives show at the top dose ratio change, negative = inhibition, most hits filed as inhibitors. 0.01% of 200,000 active; active = well fitted inhibition curve with a large enough effect in the signal ratio, with a control signal flat, not every such curve was filed as active; inconclusive = small, poorly fitted or top-dose-only effect, or effect the other way, or a change in a side signal; the % refers to the signal ratio; also: potency is read from the fitted curve at half-maximal effect; % is scaled to controls: 0 for no effect and ±100 for the full control effect
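S3 HeLa stable clones carrying a lamin A-EGFP splicing minigene plus DsRed2 were seeded at 600 cells/well in Opti-MEM with 2% FBS, pin-dosed and incubated 48 h at 37°C. Acumen cytometry (488 nm) gave the GFP/RFP total-intensity ratio.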
Sfp inh = inhibitors of Bacillus subtilis Sfp phosphopantetheinyl transferase. Q9F4F7. Biochemical Sfp PPTase activity, qHTS. Potency, µM, inactives show max response, negative = inhibition, most hits filed as inhibitors. 3.5% of 310,000 active. AID 1490; active = well fitted inhibition curve with a large enough effect; inconclusive = small, poorly fitted or top-dose-only effect, or another doubt; inactive = no such curve, though single readings can be large or run the other way;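 also: the enzyme is Sfp with the accession as filed and its product quenches rhodamine fluorescence; potency is read from the fitted curve at half-maximal effect; 0% = enzyme reaction without inhibitor and -100% = no enzyme wells; top concentration of the series not given in the record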
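Reaction rates are the 30-min fluorescence difference (ex 525, em 598 nm) in wells containing 15 nM Sfp, 5 uM rhodamine-CoA and 12.5 uM BHQ-2-YbbR at pH 7.6 with 10 mM MgCl2.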
ALDH1A1 inh = blocks purified human ALDH1A1 activity. P00352. Purified ALDH1A1, NADH fluorescence, propionaldehyde substrate. Potency, µM (highest dose often 75.3 µM), for the others: at the top dose activity, negative = inhibition, most hits filed as inhibitors. 7.3% of 220,000 active; active = well fitted inhibition curve with a large enough effect, not every such curve was filed as active; inconclusive = small, poorly fitted or top-dose-only effect, or another doubt; inactive = no such curve, though single readings can be large or run the other way;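 also: potency is read from the fitted curve at half-maximal effect; plate controls were no enzyme wells and a reference inhibitor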
miR-21 FLuc = raises the signal of a miR-21 reporter; HeLa miR-21 FLuc reporter, luciferase, 48 h; Potency, µM (top dose mostly 38.3 µM), for inactives: at the highest dose reporter change, positive = more light; AID 2288; 340,000 tested, under 10 active; active = well fitted rising curve with a large enough effect; inconclusive = small, poorly fitted or top-dose-only effect; inactive = no such curve, though single readings can be large or run the other way;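 note: % of control where 0% means no effect; miR-21 action dims this reporter so a rising signal means less miR-21 action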
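HeLa miR-21-FLuc reporter line, endogenous miR-21; 2000 cells/well in DMEM/10% FBS; compound titration up to ~40uM final, 48 h, 37 degree Celsius; luciferase detection reagent, 15 min lysis, CCD luminescence.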
G9a block = blocks human histone lysine methyltransferase G9a | Q96KQ7 | G9a H3K9 monomethylation, AlphaScreen, 2 h | Potency, µM (top dose mostly 102 µM), for the others: at the highest dose activity, negative = inhibition, hits mostly inhibitors | 8.8% of 350,000 active | AID 504332; also: potency is read from the fitted curve at half-maximal effect; % is scaled to controls: 0 for no effect and ±100 for the full control effect; nearly all actives have a fitted effect of over 75% in size
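G9a (20 nM) preincubated 15 min RT with compounds, then 500 nM biotinylated H3K9 peptide and 20 uM SAM added; 2 h RT reaction. Monomethyl-H3K9 product detected by AlphaScreen with anti-H3K9me1 antibody, streptavidin donor and anti-rabbit IgG acceptor beads.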
* hit, by the source's call; i = inactive; ? = inconclusive; . = not tested or not shown; [ ] = another dose, or the depositor's remark. Most compounds without a hit are left out; they make up all but 13% or so of the library. Unless noted, calls follow the shape of the dose curve; as a rule, active = well fitted curve in the direction sought with a large enough effect; inconclusive = small, poorly fitted or top-dose-only effect, or another doubt; inactive = no such curve, though single readings can be large; an effect the other way counts as inactive or inconclusive.

Codes – A = KDM4E inh; B = Lamin A splicing; C = Sfp inh; D = ALDH1A1 inh; E = miR-21 FLuc; F = G9a block
1) O=C(N/N=C/c1ccco1)c1cc(-c2cccc(Br)c2)nc2ccccc12
  A: i	B: ?	C: ?	D: -2.0%	E: 9.6%	F: -0.8%
2) Cc1ccc(/C=N/NC(=O)c2cc(-c3ccncc3)nc3ccccc23)o1
  A: .	B: .	C: -24.4%	D: .	E: 10.8%	F: 44.7µM*
3) O=C(N/N=C/c1ccc(O)c(O)c1)c1cc(-c2ccccc2)nc2ccccc12
  A: .	B: .	C: 0.5%	D: .	E: -16.3%	F: 44.7µM*
4) CC(/C=N/NC(=O)c1cc(-c2ccncc2)nc2ccccc12)=C\c1ccco1
  A: -4.5%	B: ?	C: 22.4µM*	D: ?	E: 21.6%	F: ?
5) CCn1c(=O)c2sccc2n2c(CCCC(=O)Nc3ccc(Oc4ccccc4)cc3)nnc12
  A: .	B: .	C: .	D: .	E: -11.4%	F: 4.7%[59 µM]
6) CC(C)c1ccc(NC(=O)Cn2cc(S(=O)(=O)Cc3cccc(Cl)c3)c3ccccc32)cc1
  A: .	B: ?	C: .	D: .	E: -5.9%	F: -0.8%[59 µM]
7) O=C(Nc1ccc2c(c1)OCO2)c1cc(-c2ccncc2)nc2ccccc12
  A: 4.9%	B: -6.5%[46 µM]	C: -4.7%	D: -2.3%	E: 10.6%	F: 50.1µM*
8) Cc1ccc(-c2cc(C(=O)N/N=C/c3ccc([N+](=O)[O-])o3)c3ccccc3n2)o1
  A: .	B: .	C: ?	D: .	E: 19.0%	F: 44.7µM*
9) Cc1ccc(/C=N\NC(=O)c2cncc(Br)c2)o1
  A: ?	B: -5.9%	C: -29.9%	D: -11.4%	E: -4.4%	F: 50.1µM*
10) COc1ccc(C(=O)c2cn(Cc3cccc(C)c3)c3cc4c(cc3c2=O)OCO4)cc1
  A: .	B: .	C: .	D: .	E: 4.0%	F: -26.5%[59 µM]
11) COCCNC(=O)CN1CCCCCC1
  A: 6.4%	B: .	C: -10.2%	D: ?	E: -0.9%	F: .
12) COCCNCC(=O)N1CCCCCC1
  A: 3.5%	B: ?	C: 0.3%	D: 3.98µM*	E: -4.4%	F: 8.91µM*
13) COc1ccc(C(=O)Oc2ccc3c(-c4ccc(OC)cc4)cc(=O)oc3c2)cc1
  A: 5.5%	B: .	C: -6.5%	D: 14.9%	E: .	F: .
14) COc1ccc(-c2cc(=O)oc3c(O)c(O)ccc23)cc1
  A: .	B: .	C: 6.3%	D: .	E: 12.6%	F: 8.91µM*
15) O=S(=O)(NC1CCC(CNS(=O)(=O)c2c(F)cccc2F)CC1)c1ccc2c(c1)OCCO2 (stereo not drawn)
  A: .	B: .	C: .	D: .	E: .	F: 10.1%[12.7 µM]
16) CC(C)Cc1nc(N2CCN(C(=O)c3ccccc3)CC2)c(C#N)c2c1CCC2
  A: ?	B: ?	C: ?	D: ?	E: -4.5%	F: 24.1%[12.7 µM]
17) N#Cc1nc(-c2ccco2)oc1N1CCN(C(c2ccccc2)c2ccccc2)CC1
  A: ?	B: -3.5%	C: 5.4%	D: ?	E: -7.2%	F: ?
18) O=C(c1ccco1)N1CCc2[nH]nc(-c3ccccc3)c2C1
  A: .	B: .	C: 11.3%	D: .	E: -2.4%	F: 79.4µM*
19) CC(C)Cc1nc(N2CCN(C(=O)c3ccco3)CC2)c(C#N)c2c1CCC2
  A: ?	B: ?	C: 44.7µM*	D: ?	E: -11.0%	F: ?
20) N#Cc1c(N2CCN(C(=O)c3ccco3)CC2)nc(-c2ccccc2)c2c1CCCC2
  A: ?	B: ?	C: 44.7µM*	D: ?	E: 18.0%	F: -33.4%[59 µM]
21) N#Cc1nc(-c2ccccc2)oc1N1CCN(C(=O)c2ccco2)CC1
  A: .	B: .	C: -3.6%	D: .	E: -10.0%	F: 39.8µM*
22) Cc1ccc(COc2ccc3oc(-c4ccccc4)c(C(=O)O)c3c2)cc1
  A: .	B: .	C: .	D: .	E: ?	F: -19.0%[59 µM]
23) O=C(Cn1ncc2ccsc2c1=O)N1CCN(c2ccccc2F)CC1
  A: .	B: .	C: .	D: .	E: -3.0%	F: -3.5%[59 µM]
24) CN(c1ncnc2onc(-c3cccc(Cl)c3)c12)C1CCCCC1
  A: .	B: .	C: .	D: .	E: -20.9%	F: 23.4%[59 µM]
25) Clc1ccc(CSC2=NCCN2)cc1Cl
  A: .	B: .	C: .	D: -3.4%[13.5 µM]	E: .	F: .

Three compounds already listed, arranged by their value in KDM4E inh, ascending.
no.	SMILES	KDM4E inh	Sfp inh	ALDH1A1 inh	miR-21 FLuc	G9a block
4	CC(/C=N/NC(=O)c1cc(-c2ccncc2)nc2ccccc12)=C\c1ccco1	-4.5%	22.4µM*	?	21.6%	?
12	COCCNCC(=O)N1CCCCCC1	3.5%	0.3%	3.98µM*	-4.4%	8.91µM*
13	COc1ccc(C(=O)Oc2ccc3c(-c4ccc(OC)cc4)cc(=O)oc3c2)cc1	5.5%	-6.5%	14.9%	.	.

(more compounds)
Codes – A = KDM4E inh; B = Lamin A splicing; C = Sfp inh; D = ALDH1A1 inh; E = miR-21 FLuc; F = G9a block
26) Cc1cc(N2CCN(C(=O)c3ccco3)CC2)nc(-c2ccccc2)n1
  A: 5.0%	B: ?	C: -7.6%	D: 6.31µM*	E: 14.7%	F: ?
27) CCOc1ccc(C(=O)C(C)OC(=O)c2nc(Cl)ccc2Cl)cc1 (stereo not drawn)
  A: .	B: .	C: .	D: .	E: .	F: 30.7%
28) Cc1cccc(-n2nc3c(c2NC(=O)CCCl)CSC3)c1
  A: .	B: .	C: 44.7µM*	D: .	E: 2.2%	F: 18.2%[2.33 µM]
29) Cc1cccc(-n2nc3c(c2NC(=O)c2ccc(Br)o2)CSC3)c1
  A: -1.3%	B: 1.6%	C: ?	D: -13.4%	E: -1.0%	F: 39.8µM*
30) CCC(=O)Nc1c2c(nn1-c1ccccc1C)CSC2
  A: -9.1%	B: -11.0%	C: 56.2µM*	D: 4.4%	E: -8.7%	F: -10.6%[59 µM]
31) O=C(CCCCl)Nc1c2c(nn1-c1ccccc1)CSC2
  A: .	B: .	C: -2.1%	D: .	E: -1.9%	F: 2.2%
32) CSc1cccc(N2C(=O)C3CCCN3C2=S)c1 (stereo not drawn)
  A: .	B: .	C: 5.1%	D: .	E: -0.4%	F: 70.8µM*

Rewritten in transposed form: two of the compounds above.
28. Cc1cccc(-n2nc3c(c2NC(=O)CCCl)CSC3)c1
29. Cc1cccc(-n2nc3c(c2NC(=O)c2ccc(Br)o2)CSC3)c1
assay / entry | 28 | 29
KDM4E inh | . | -1.3%
Lamin A splicing | . | 1.6%
Sfp inh | 44.7µM* | ?
ALDH1A1 inh | . | -13.4%
miR-21 FLuc | 2.2% | -1.0%
G9a block | 18.2%[2.33 µM] | 39.8µM*

Assay outcomes (PubChem BioAssay)
